Source: PubChem BioAssay (NCI)
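Where inhibition never reached the appropriate level, the endpoint shown equals the highest concentration tested. Otherwise, values were interpolated linearly from a five-concentration, 48-hour dose response in 96-well plates. At the GI50, growth is halved. TGI: concentration producing complete growth inhibition.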

Tests used:
Assay in all cases: growth of human tumour cells (NCI), 48 h
HCT-15 colon = tested on: HCT-15 colon
MDA-MB-435 = tested on: MDA-MB-435
NCI-H460 lung = tested on: NCI-H460 lung
TK-10 renal = tested on: TK-10 renal
EKVX NSCLC = tested on: EKVX NSCLC
RXF 393 renal = tested on: RXF 393 renal
SK-MEL-2 melanoma = tested on: SK-MEL-2 melanoma
MDA-N = tested on: MDA-N
SK-MEL-5 melanoma = tested on: SK-MEL-5 melanoma
IGROV1 ovarian = tested on: IGROV1 ovarian
HOP-62 NSCLC = tested on: HOP-62 NSCLC
COLO 205 colon = tested on: COLO 205 colon
HCT-116 colon = tested on: HCT-116 colon
SN12C renal = tested on: SN12C renal
SF-268 CNS = tested on: SF-268 CNS
PC-3 prostate = tested on: PC-3 prostate
NCI/ADR-RES ovarian = tested on: NCI/ADR-RES ovarian
A549 NSCLC = tested on: A549 NSCLC
K-562 leukemia = tested on: K-562 leukemia
SNB-19 CNS = tested on: SNB-19 CNS
T-47D breast = tested on: T-47D breast
MCF7 breast = tested on: MCF7 breast
KM12 colon = tested on: KM12 colon
U251 CNS = tested on: U251 CNS
RPMI-8226 leukemia = tested on: RPMI-8226 leukemia
HS 578T breast = tested on: HS 578T breast
OVCAR-3 ovarian = tested on: OVCAR-3 ovarian
SR leukemia = tested on: SR leukemia
M14 melanoma = tested on: M14 melanoma
SK-OV-3 ovarian = tested on: SK-OV-3 ovarian
A498 renal = tested on: A498 renal
NCI-H23 lung = tested on: NCI-H23 lung
SW-620 colon = tested on: SW-620 colon
MALME-3M melanoma = tested on: MALME-3M melanoma
MDA-MB-231 breast = tested on: MDA-MB-231 breast
LOX IMVI melanoma = tested on: LOX IMVI melanoma
UACC-257 melanoma = tested on: UACC-257 melanoma
UO-31 renal = tested on: UO-31 renal
ACHN renal = tested on: ACHN renal
OVCAR-5 ovarian = tested on: OVCAR-5 ovarian
NCI-H226 lung = tested on: NCI-H226 lung
BT-549 breast = tested on: BT-549 breast
UACC-62 melanoma = tested on: UACC-62 melanoma
SNB-75 CNS = tested on: SNB-75 CNS
NCI-H322M lung = tested on: NCI-H322M lung
SK-MEL-28 melanoma = tested on: SK-MEL-28 melanoma
MOLT-4 leukemia = tested on: MOLT-4 leukemia
CAKI-1 renal = tested on: CAKI-1 renal
NCI-H522 lung = tested on: NCI-H522 lung
HOP-92 NSCLC = tested on: HOP-92 NSCLC
OVCAR-8 ovarian = tested on: OVCAR-8 ovarian
SF-539 CNS = tested on: SF-539 CNS
OVCAR-4 ovarian = tested on: OVCAR-4 ovarian
DU-145 prostate = tested on: DU-145 prostate
786-0 renal = tested on: 786-0 renal
HT29 colon = tested on: HT29 colon
SF-295 CNS = tested on: SF-295 CNS
DLD-1 colon = tested on: DLD-1 colon
HCC-2998 colon = tested on: HCC-2998 colon
M19-MEL melanoma = tested on: M19-MEL melanoma
CCRF-CEM leukemia = tested on: CCRF-CEM leukemia
HOP-18 NSCLC = tested on: HOP-18 NSCLC
SNB-78 CNS = tested on: SNB-78 CNS
HL-60(TB) leukemia = tested on: HL-60(TB) leukemia
LXFL 529 NSCLC = tested on: LXFL 529 NSCLC
DMS 114 small cell lung = tested on: DMS 114 small cell lung
RXF-631 renal = tested on: RXF-631 renal
KM20L2 colon = tested on: KM20L2 colon
XF 498 CNS = tested on: XF 498 CNS
DMS 273 small cell lung = tested on: DMS 273 small cell lung

## O=C(CO)Nc1ccc([As](=O)(O)O)cc1
HCT-15 colon
  GI50: > 100 µM
  TGI: > 100 µM
MDA-MB-435
  GI50: > 100 µM
  TGI: > 100 µM
NCI-H460 lung
  GI50: > 100 µM
  TGI: > 100 µM
TK-10 renal
  GI50: > 100 µM
  TGI: > 100 µM
EKVX NSCLC
  GI50: > 100 µM
  TGI: > 100 µM
RXF 393 renal
  GI50: > 100 µM
  TGI: > 100 µM
SK-MEL-2 melanoma
  GI50: > 100 µM
  TGI: > 100 µM
MDA-N
  GI50: > 100 µM
  TGI: > 100 µM
SK-MEL-5 melanoma
  GI50: > 100 µM
  TGI: > 100 µM
IGROV1 ovarian
  GI50: > 100 µM
  TGI: > 100 µM
HOP-62 NSCLC
  GI50: > 100 µM
  TGI: > 100 µM
COLO 205 colon
  GI50: > 100 µM
  TGI: > 100 µM
HCT-116 colon
  GI50: > 100 µM
  TGI: > 100 µM
SN12C renal
  GI50: > 100 µM
  TGI: > 100 µM
SF-268 CNS
  GI50: > 100 µM
  TGI: > 100 µM
PC-3 prostate
  GI50: > 100 µM
  TGI: > 100 µM
NCI/ADR-RES ovarian
  GI50: > 100 µM
  TGI: > 100 µM
A549 NSCLC
  GI50: > 100 µM
  TGI: > 100 µM
K-562 leukemia
  GI50: > 100 µM
  TGI: > 100 µM
SNB-19 CNS
  GI50: > 100 µM
  TGI: > 100 µM
T-47D breast
  GI50: > 100 µM
  TGI: > 100 µM
MCF7 breast
  GI50: > 100 µM
  TGI: > 100 µM
KM12 colon
  GI50: > 100 µM
  TGI: > 100 µM
U251 CNS
  GI50: > 100 µM
  TGI: > 100 µM
RPMI-8226 leukemia
  GI50: > 100 µM
  TGI: > 100 µM
HS 578T breast
  GI50: > 100 µM
  TGI: > 100 µM
OVCAR-3 ovarian
  GI50: > 100 µM
  TGI: > 100 µM
SR leukemia
  GI50: > 100 µM
  TGI: > 100 µM
M14 melanoma
  GI50: > 100 µM
  TGI: > 100 µM
SK-OV-3 ovarian
  GI50: > 100 µM
  TGI: > 100 µM
A498 renal
  GI50: > 100 µM
  TGI: > 100 µM
NCI-H23 lung
  GI50: > 100 µM
  TGI: > 100 µM
SW-620 colon
  GI50: > 100 µM
  TGI: > 100 µM
MALME-3M melanoma
  GI50: > 100 µM
  TGI: > 100 µM
MDA-MB-231 breast
  GI50: > 100 µM
  TGI: > 100 µM
LOX IMVI melanoma
  GI50: > 100 µM
  TGI: > 100 µM
UACC-257 melanoma
  GI50: > 100 µM
  TGI: > 100 µM
UO-31 renal
  GI50: > 100 µM
  TGI: > 100 µM
ACHN renal
  GI50: > 100 µM
  TGI: > 100 µM
OVCAR-5 ovarian
  GI50: > 100 µM
  TGI: > 100 µM
NCI-H226 lung
  GI50: > 100 µM
  TGI: > 100 µM
BT-549 breast
  GI50: > 100 µM
  TGI: > 100 µM
UACC-62 melanoma
  GI50: > 100 µM
  TGI: > 100 µM
SNB-75 CNS
  GI50: > 100 µM
  TGI: > 100 µM
NCI-H322M lung
  GI50: > 100 µM
  TGI: > 100 µM
SK-MEL-28 melanoma
  GI50: > 100 µM
  TGI: > 100 µM
MOLT-4 leukemia
  GI50: > 100 µM
  TGI: > 100 µM
CAKI-1 renal
  GI50: > 100 µM
  TGI: > 100 µM
NCI-H522 lung
  GI50: > 100 µM
  TGI: > 100 µM
HOP-92 NSCLC
  GI50: > 100 µM
  TGI: > 100 µM
OVCAR-8 ovarian
  GI50: > 100 µM
  TGI: > 100 µM
SF-539 CNS
  GI50: > 100 µM
  TGI: > 100 µM
OVCAR-4 ovarian
  GI50: > 100 µM
  TGI: > 100 µM
DU-145 prostate
  GI50: > 100 µM
  TGI: > 100 µM
786-0 renal
  GI50: > 100 µM
  TGI: > 100 µM
HT29 colon
  GI50: > 100 µM
  TGI: > 100 µM
SF-295 CNS
  GI50: > 100 µM
  TGI: > 100 µM

## O=P1(Oc2ccccc2)NNP2(=NP(Cl)(Cl)=NP(Cl)(Cl)=N2)NN1 (stereo not drawn)
HCT-15 colon
  GI50: > 100 µM
  TGI: > 100 µM
NCI-H460 lung
  GI50: > 100 µM
  TGI: > 100 µM
TK-10 renal
  GI50: > 100 µM
  TGI: > 100 µM
DLD-1 colon
  GI50: > 100 µM
  TGI: > 100 µM
EKVX NSCLC
  GI50: > 100 µM
  TGI: > 100 µM
HCC-2998 colon
  GI50: > 100 µM
  TGI: > 100 µM
SK-MEL-2 melanoma
  GI50: > 100 µM
  TGI: > 100 µM
M19-MEL melanoma
  GI50: > 100 µM
  TGI: > 100 µM
CCRF-CEM leukemia
  GI50: > 100 µM
  TGI: > 100 µM
HOP-18 NSCLC
  GI50: > 100 µM
  TGI: > 100 µM
SK-MEL-5 melanoma
  GI50: > 100 µM
  TGI: > 100 µM
SNB-78 CNS
  GI50: > 100 µM
  TGI: > 100 µM
IGROV1 ovarian
  GI50: > 100 µM
  TGI: > 100 µM
HOP-62 NSCLC
  GI50: > 100 µM
  TGI: > 100 µM
COLO 205 colon
  GI50: > 100 µM
  TGI: > 100 µM
HCT-116 colon
  GI50: > 100 µM
  TGI: > 100 µM
SN12C renal
  GI50: > 100 µM
  TGI: > 100 µM
SF-268 CNS
  GI50: > 100 µM
  TGI: > 100 µM
A549 NSCLC
  GI50: > 100 µM
  TGI: > 100 µM
HL-60(TB) leukemia
  GI50: > 100 µM
  TGI: > 100 µM
K-562 leukemia
  GI50: > 100 µM
  TGI: > 100 µM
SNB-19 CNS
  GI50: > 100 µM
  TGI: > 100 µM
KM12 colon
  GI50: > 100 µM
  TGI: > 100 µM
U251 CNS
  GI50: > 100 µM
  TGI: > 100 µM
RPMI-8226 leukemia
  GI50: > 100 µM
  TGI: > 100 µM
OVCAR-3 ovarian
  GI50: > 100 µM
  TGI: > 100 µM
LXFL 529 NSCLC
  GI50: > 100 µM
  TGI: > 100 µM
SK-OV-3 ovarian
  GI50: > 100 µM
  TGI: > 100 µM
A498 renal
  GI50: > 100 µM
  TGI: > 100 µM
DMS 114 small cell lung
  GI50: > 100 µM
  TGI: > 100 µM
NCI-H23 lung
  GI50: > 100 µM
  TGI: > 100 µM
SW-620 colon
  GI50: > 100 µM
  TGI: > 100 µM
MALME-3M melanoma
  GI50: > 100 µM
  TGI: > 100 µM
LOX IMVI melanoma
  GI50: > 100 µM
  TGI: > 100 µM
UACC-257 melanoma
  GI50: > 100 µM
  TGI: > 100 µM
UO-31 renal
  GI50: > 100 µM
  TGI: > 100 µM
ACHN renal
  GI50: > 100 µM
  TGI: > 100 µM
OVCAR-5 ovarian
  GI50: > 100 µM
  TGI: > 100 µM
NCI-H226 lung
  GI50: > 100 µM
  TGI: > 100 µM
RXF-631 renal
  GI50: > 100 µM
  TGI: > 100 µM
KM20L2 colon
  GI50: > 100 µM
  TGI: > 100 µM
UACC-62 melanoma
  GI50: > 100 µM
  TGI: > 100 µM
SNB-75 CNS
  GI50: > 100 µM
  TGI: > 100 µM
NCI-H322M lung
  GI50: > 100 µM
  TGI: > 100 µM
SK-MEL-28 melanoma
  GI50: > 100 µM
  TGI: > 100 µM
MOLT-4 leukemia
  GI50: > 100 µM
  TGI: > 100 µM
CAKI-1 renal
  GI50: > 100 µM
  TGI: > 100 µM
XF 498 CNS
  GI50: > 100 µM
  TGI: > 100 µM
NCI-H522 lung
  GI50: > 100 µM
  TGI: > 100 µM
HOP-92 NSCLC
  GI50: > 100 µM
  TGI: > 100 µM
OVCAR-8 ovarian
  GI50: > 100 µM
  TGI: > 100 µM
SF-539 CNS
  GI50: > 100 µM
  TGI: > 100 µM
OVCAR-4 ovarian
  GI50: > 100 µM
  TGI: > 100 µM
DMS 273 small cell lung
  GI50: > 100 µM
  TGI: > 100 µM
786-0 renal
  GI50: > 100 µM
  TGI: > 100 µM
HT29 colon
  GI50: > 100 µM
  TGI: > 100 µM
SF-295 CNS
  GI50: > 100 µM
  TGI: > 100 µM
